Results on one compound are retold here after patent publication US7778782B1, “Peroxisome proliferation activated receptor alpha (PPARα) signatures” (priority 2002, dated 2010).

For this assay, the system named is PPARα response signature. Put plainly: Signature Projection Score (SPS) of liver gene expression against the PPARα response signature. Conditions: rat liver expression data in DrugMatrix database compared with PPARα response signature; normalised so highest training treatment = 100; *= p < 0.01, **= p < 0.001.

For the compound `CC(C)OC(=O)C(C)(C)Oc1ccc(C(=O)c2ccc(Cl)cc2)cc1` [FENOFIBRATE], the “SPS (Sequence Projection Score)” value is on record as 100**.
